Laboratory results reported in PubChem BioAssay AID526 (National Center for Advancing Translational Sciences (NCATS), 2006).
The list shows a part of the results. The source made the active and inactive calls. Calls follow the shape of the dose curve; as a rule, active = well fitted activation curve with a large enough effect (not every such curve was filed as active); inconclusive = small, poorly fitted or top-dose-only effect, or another doubt; inactive = no such curve, though single readings can be large or run the other way.

Experiment: Ubiquitin-GFP Assay
Details: Ubiquitin-GFP reporter cells, proteasome inhibition, GFP fluorescence, untreated = 0%, 10 µM MG-132 = 100%; at 45.9 µM unless noted
Description: NIH Chemical Genomics Center [NCGC]
NIH Molecular Libraries Screening Centers Network [MLSCN]
The ubiquitin-proteasome pathway is present within all eukaryotic cells and plays roles in normal cellular functions and disease-related dysfunction. Proteins are tagged with a poly-ubiquitin chain that targets them for the proteasome, a multimeric protease, that degrades the protein into peptides and free ubiquitin. The proteasome has a key role in regulating cell cycle and growth and is known to control the levels of cyclins and CDK inhibitors as well as tumor suppressor proteins. Additionally, the activation of NF- B is controlled by ubiquitin-labeling and degradation of the inhibitory protein I B . […] With this in mind, proteasome inhibitors such as MG-132 and PS-341 have been used to inhibit tumor cell growth.
A cellular assay for ubiquitin-proteasome function was used to find chemical probes of this pathway. The assay used an ubiquitin-GFP construct expressed in U2OS cells (BioImage). Under basal conditions little GFP can be detected as it is degraded by the proteasome. However, treatment of the cells with a proteasome inhibitor such as MG-132 results in a rise in GFP levels that can be detected in as little as four hours. We used the Acumen-Explorer laser plate cytometer having a 488 nm laser as an excitation light source to detect the GFP. Compounds were screened in 1536-well plates using qHTS with a concentration-titration series range that varied from 46 uM to 2.9 nM.
NCGC Assay Protocol Summary:
Cells (U20S ps 2042) expressing ubiquitin (G76V-GFP) were maintained in DMEM with Glutamax-1 and high glucose, 10% FBS, 1% (v/v) penicillin-streptomycin, 0.5 mg/mL Geneticin (G418). The cells were seeded in 1536-well plates using a solenoid-based dispenser at 700 cells/5ul in DMEM medium with Glutamax-1 and high glucose containing 0.5% FBS, w/o phenol red, 25 mM HEPES. The plates were incubated at 37 °C/5% CO2 overnight. Then 23 nl of MG-132 in DMSO was added to the control wells at a final concentration of 10 uM. Next, 23 nL of library compounds in DMSO were added to the sample wells. The plates were incubated for 4 hrs at 37 °C/5% CO2. Following this incubation the plates were read on the Acumen using a cell object definition of 15 to 100 um in width and depth and a window of Total Intensity of between 77,200 and 2,720,000 FLU to enumerate GFP-expressing cells.
The %Activity was determined from the basal and MG-132 treated control wells. %Activity was determined by normalizing to the difference in signal between basal cells (0% Activity) and cells incubated with 10 uM of the proteasome inhibitor MG-132 (100% Activity). Concentration-response curves were fitted to the signals arising from the GFP fluorescence.
Assay Protocol Summary Table
Sequence Parameter Value Description
2. Time O/N 37C incubation
4. Compound 23 nL Libraries (46 uM to 2.9 nM)
5. Time 4 hr 37C incubation
6. Detector Acumen Total Intensity, GFP fluorescence (488 ex/515 em)
Keywords: NIH Roadmap, MLSCN, MLI, MLSMR, BioImage, proteasome, ubiquitin-GFP, qHTS, NCGC

SMILES | activation (GFP accumulation)
N/C(=N\O)c1c(N)no[n+]1[O-] | inactive: -2.6%
Fc1ccccc1NC1CCN(Cc2ccccc2)CC1 | inactive: -19.5%
CCC(CO)(C(=O)OC1CN2CCC1CC2)c1ccccc1 (stereo not drawn) | inactive: -4.98%
O=C(O)C1(Nc2ccccc2)CCN(Cc2ccccc2)CC1 | inactive: -0.299% [at 9.17 µM]
CCOc1ncccc1C(=O)NCC1(N2CCOCC2)CCCCC1 | inactive: -3.69%
O=C(OC1CN2CCC1CC2)C1c2ccccc2Oc2ccccc21 (stereo not drawn) | inactive: 2.22%
N#CC1(Nc2ccccc2)CCN(CCc2ccccc2)CC1 | inactive: -20.9%
NC1CCCCC1.NP(=O)(O)N(CCCl)CCCl | inactive: -6.15% [at 9.17 µM]
